Only a part of the results on these compounds is given; other tests are left out. Marks after values point to notes of the source that are not given here.
Tests used:
AChE [1] = molecular target: T1, AChE (Electrophorus electricus, UniProt O42275); assay: Kinetics of AChE inhibition (Lineweaver-Burk)
AChE [2] = molecular target: T1, AChE; assay: Intrinsic fluorescence emission of AChE-peptide complex; settings: peptide 1.56, 3.13, 6.25 μg/ml; excitation 280 nm

Amino acid sequences for entries named in this document (tags omitted). Residues count along the entry.
UniProt O42275, 24-633 limits assumed: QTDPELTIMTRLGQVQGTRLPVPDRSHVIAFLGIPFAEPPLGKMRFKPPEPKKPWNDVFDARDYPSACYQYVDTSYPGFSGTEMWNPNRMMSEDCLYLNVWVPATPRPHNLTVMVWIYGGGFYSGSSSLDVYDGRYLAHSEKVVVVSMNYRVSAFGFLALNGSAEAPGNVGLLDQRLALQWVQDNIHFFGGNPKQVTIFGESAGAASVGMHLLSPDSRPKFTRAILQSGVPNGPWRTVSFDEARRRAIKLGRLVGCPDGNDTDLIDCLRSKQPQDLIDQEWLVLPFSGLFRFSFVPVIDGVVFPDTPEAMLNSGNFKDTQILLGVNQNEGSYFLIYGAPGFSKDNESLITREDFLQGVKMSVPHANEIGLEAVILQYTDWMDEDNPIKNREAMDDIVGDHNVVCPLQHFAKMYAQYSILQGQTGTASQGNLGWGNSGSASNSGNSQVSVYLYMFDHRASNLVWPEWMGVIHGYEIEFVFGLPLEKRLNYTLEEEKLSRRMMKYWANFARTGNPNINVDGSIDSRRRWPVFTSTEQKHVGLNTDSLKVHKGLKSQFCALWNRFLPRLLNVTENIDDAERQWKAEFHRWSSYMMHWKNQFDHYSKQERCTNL

With `N=C(N)NCCC[C@H](NC(=O)[C@H](CO)NC(=O)[C@H](CCC(N)=O)NC(=O)[C@@H](N)CO)C(=O)N[C@@H](CO)C(=O)O` the Km (AChE [1]; peptide 0.05 mM) was 10 µM, the “Vmax (ΔA/min)” value (AChE [1]; peptide 0.05 mM) was 6.20 ± 0.00^e ΔA/min and the Km (AChE [1]; peptide 0.1 mM) was 10 µM. The “Effect on AChE fluorescence intensity (FI)” value (AChE [2]) was “reduced the FI of the enzyme”.
